Earlier results, collected in patent publication EP3494998A1, “GLYCOSYLATED PSMA INHIBITORS FOR IMAGING AND ENDORADIOTHERAPY” (Technische Universität München, priority 2017, dated 2019).

Settings: 68Ga- and 177Lu-18, data from a previously published report (Robu 2016); cited from earlier work

Question: With [^68Ga]PSMA I&T [^nat/68Ga-18] as the substance, how does the logP read?
Answer: Its logP is -4.31 ± 0.32.

Question: Which logP does the source give for [^177Lu]PSMA I&T [^nat/177Lu-18] here?
Answer: The logP was -4.12 ± 0.1.
